Source: PubChem BioAssay AID750 (Sanford-Burnham Center for Chemical Genomics, 2007)
Only a part is listed here, and it is no random draw. Some tests of the compounds listed are not included; inactive here does not mean inactive elsewhere. Activity calls are given as the source filed them.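 The calls were made as follows: active = activation factor of at least 2 for MT1-MMP transcription at 10 µM; inactive = the rest.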

Assay: MT1-MMP promoter reporter activation – cell-based, luciferase luminescence, primary screen (AID 750)
Settings: HT1080 MT1-MMP promoter luciferase reporter, overnight, at 10 µM, hits give high values

Q: Which activation factor does the source give for CN(C)c1cccc(C(=O)NCC2(N(C)C)CCCCC2)c1 here?
A: The activation factor was inactive: 1.1.

Q: For O=C(OC1CN2CCC1CC2)C(CO)(c1ccccc1)c1ccccc1 (configuration not stated), which activation factor is on record?
A: The activation factor was inactive: 1.2.
